ChEMBL document CHEMBL1135086

The chains behind the UniProt entries cited, without tags or fusion partners.
UniProt P29476, whole entry, looked up: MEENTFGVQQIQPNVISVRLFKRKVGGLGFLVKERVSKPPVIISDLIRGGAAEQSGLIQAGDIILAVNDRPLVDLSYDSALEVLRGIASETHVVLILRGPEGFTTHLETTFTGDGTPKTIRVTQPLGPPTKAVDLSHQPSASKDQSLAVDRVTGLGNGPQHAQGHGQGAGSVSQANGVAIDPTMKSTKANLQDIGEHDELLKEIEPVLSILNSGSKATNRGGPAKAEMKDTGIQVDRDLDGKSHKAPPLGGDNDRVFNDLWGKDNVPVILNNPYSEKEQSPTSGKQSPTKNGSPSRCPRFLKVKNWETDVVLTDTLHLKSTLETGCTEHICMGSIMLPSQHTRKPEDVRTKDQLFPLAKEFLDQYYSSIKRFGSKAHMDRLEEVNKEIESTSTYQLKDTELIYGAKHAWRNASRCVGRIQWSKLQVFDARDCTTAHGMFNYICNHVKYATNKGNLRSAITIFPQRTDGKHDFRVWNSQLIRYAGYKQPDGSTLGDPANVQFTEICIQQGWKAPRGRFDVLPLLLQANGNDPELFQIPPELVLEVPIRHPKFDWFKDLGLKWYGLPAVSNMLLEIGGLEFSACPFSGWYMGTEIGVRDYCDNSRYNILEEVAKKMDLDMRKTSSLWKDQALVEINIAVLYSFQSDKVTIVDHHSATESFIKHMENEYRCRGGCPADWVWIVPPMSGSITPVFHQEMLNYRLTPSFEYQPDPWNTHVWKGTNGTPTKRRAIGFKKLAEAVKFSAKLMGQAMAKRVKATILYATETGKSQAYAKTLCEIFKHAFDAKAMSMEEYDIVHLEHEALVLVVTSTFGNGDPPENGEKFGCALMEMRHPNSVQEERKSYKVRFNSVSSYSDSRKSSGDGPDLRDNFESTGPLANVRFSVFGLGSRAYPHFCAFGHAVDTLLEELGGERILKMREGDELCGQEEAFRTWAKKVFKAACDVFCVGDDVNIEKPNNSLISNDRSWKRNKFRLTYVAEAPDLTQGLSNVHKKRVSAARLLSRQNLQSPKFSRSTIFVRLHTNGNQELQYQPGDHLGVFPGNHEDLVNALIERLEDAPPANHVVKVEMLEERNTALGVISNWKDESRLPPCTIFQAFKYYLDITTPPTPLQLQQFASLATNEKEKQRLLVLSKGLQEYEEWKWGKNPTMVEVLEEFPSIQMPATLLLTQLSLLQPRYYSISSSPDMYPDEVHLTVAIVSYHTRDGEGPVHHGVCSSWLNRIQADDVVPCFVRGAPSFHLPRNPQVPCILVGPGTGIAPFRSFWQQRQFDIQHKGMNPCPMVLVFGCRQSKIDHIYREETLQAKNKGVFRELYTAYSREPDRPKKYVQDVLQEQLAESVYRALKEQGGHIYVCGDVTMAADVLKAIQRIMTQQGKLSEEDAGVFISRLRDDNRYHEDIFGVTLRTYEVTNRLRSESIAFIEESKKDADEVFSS

Target: Nitric oxide synthase 1 (Rattus norvegicus) (UniProt P29476)
Experiment: Effect on the activity of recombinant rat neuronal nitric oxide synthase as determined with radioactive L-arginine/L-citruline conversion assay
Design: concentration or dose not given beside the values
Conditions: concentration not given here

For `O=[N+]([O-])/C=C/c1cc(O)c(O)cc1[N+](=O)[O-]`, the inhibition was 55%.
